Hits are enriched below; roughly 1.6% of the tested compounds scored in any of these assays.
CAL PDZ FP-1: CAL PDZ peptide-binding inhibitors, primary screen, biochemical, fluorescence polarization, Cer-tagged CAL PDZ, HTS; purified CAL PDZ, TMR-peptide fluorescence polarization, 1 h; inhibition, % at 20 µM; 0.02% of 330,000 active;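 active = highest replicate inhibition of at least 40%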
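material = purified tagged CAL PDZ domain construct (CerCALP) | compound dosing = 20 µM, one dose | times = 1 h at RT | measured by = fluorescence polarization from S- and P-plane intensities, G-factor corrected | read-out = inhibition from polarization loss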
UUG fidelity: modulators of start codon recognition fidelity in yeast; AID 602363; activity score, % at 18.7 µM; S. cerevisiae UUG-firefly luciferase reporter, luminescence/redox ratio; actives 0.13% (n = 350,000);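 active = replicate mean at a twofold rise or more, about +100% in these data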;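 note: firefly luciferase made from a UUG start codon reports start codon fidelity; reporter light over untreated wells divided by growth signal over untreated wells; some hits fall short of that in this replicate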
ARNT TACC3 PPI: disruptors of ARNT/TACC3 protein interaction, primary screen, biochemical, AlphaScreen, single concentration. inhibition, % at 9.99 µM. 0.66% of 390,000 active. AlphaScreen His-ARNT PAS-B/GST-TACC3 binding, luminescence; TACC3 fragment carries E629A point mutation;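 active = mean inhibition of replicates at least 50% and at least half of replicates each reaching 50%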
Vif imaging: HIV Vif self-association inhibitors, primary screen, imaging, HEK293T, single point. inhibition, % at 7.49 µM. 0.35% of 340,000 active. HEK293T cells, Vif self-association by quenched fluorescence, 24 h; in the data active = inhibition above about 50%, passing the limit was not always enough
PglD DTNB: C. jejuni PglD acetyltransferase inhibitors, primary screen, biochemical, DTNB colorimetric, single point. UDP-N-acetylbacillosamine N-acetyltransferase PglD (Campylobacter jejuni). purified PglD enzyme, DTNB colorimetric CoA detection. inhibition, % at 12.5 µM. 0.098% of 360,000 active. AID 602405, 2012; in the data active = inhibition above about 16%, passing the limit was not always enough
CAL PDZ FP-2: untagged CAL PDZ binding inhibitors, primary screen, biochemical, fluorescence polarization, HTS | purified CAL PDZ, TMR-peptide fluorescence polarization, 1 h | inhibition, % at 24.9 µM | 0.92% of 300,000 active | Golgi-associated PDZ and coiled-coil motif-containing protein (Homo sapiens), Q9HD26 | AID 602252, 2012;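 active = mean inhibition of at least 30% with at least half of replicates also reaching 30%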
A number is an active result; . = inactive; / = no result given; ! = a repeat was not active.

SMILES	CAL PDZ FP-1	UUG fidelity	ARNT TACC3 PPI	Vif imaging	PglD DTNB	CAL PDZ FP-2
Cc1nc2ccccc2c(=O)n1/N=C/c1cc(Br)ccc1O	.	.	59.5	/	.	.
O=c1cc(-c2ccc(Cl)cc2)[nH][nH]1	.	.	.	57.4	.	.
O=c1cc(O)c2ccc(O)cc2o1	.	.	.	.	.	.
O=c1ccc2[n+]([O-])c3ccc(O)cc3oc-2c1	43.1	/	.	.	/	71.4
Cc1ccc(Cl)cc1NC(=O)C[n+]1ccc(Cc2ccc([N+](=O)[O-])cc2)cc1	.	/	50.9	.	/	.
CCCCc1ccc(-c2csc(/C(C#N)=C\c3ccco3)n2)cc1	.	/	.	50.8	/	.
CCCCc1ccc(-c2csc(/C(C#N)=C/c3ccc(C)o3)n2)cc1	.	.	.	/	.	.
COC(=O)C[C@@H]1C=C[C@H](NC(=O)c2ccccc2)[C@H](CO)O1	/	.	.	/	.	/
Cc1cc2nc(Cl)c(Cl)nc2cc1C	.	/	.	67.1	/	.
CCOC(=O)c1csc(Nc2nc3ccc(F)cc3s2)n1	.	.	.	.	.	39.3
CN(C)C(=O)C[C@H]1C[C@@H]2c3cc(NC(=O)Nc4ccccc4)ccc3O[C@@H]2[C@H](CO)O1	/	.	.	/	.	/
O=C(O)C[C@@H]1C[C@@H]2c3cc(NC(=O)CC4CC4)ccc3O[C@@H]2[C@@H](CO)O1	/	49.8	.	/	.	/
CN(C)C(=O)C[C@@H]1C[C@@H]2c3cc(NC(=O)Nc4ccccc4)ccc3O[C@@H]2[C@@H](CO)O1	/	42.9	.	/	.	/
COc1ccccc1CNC(=O)C[C@@H]1C[C@@H]2c3cc(NC(=O)Cc4ccncc4)ccc3O[C@@H]2[C@H](CO)O1	/	/	40.9	/	.	/
CC=Cc1ccc2n(c1=O)C[C@@H]1[C@@H](CO)[C@H](C(=O)NCc3ccncc3)N(Cc3cncnc3)[C@H]21 (mixture of isomers)	/	.	.	/	.	/
COc1ccc(CN(C)C[C@@H]2Oc3ccc(NS(C)(=O)=O)cc3C(=O)N([C@H](C)CO)C[C@H]2C)cc1	/	.	.	/	.	/
O=C(Nc1cccc(F)c1)N1C[C@@H]2[C@H](c3ccccc31)[C@H](CO)N2C(=O)Cc1ccccc1	/	.	.	/	.	/
C[C@@H]1CN([C@@H](C)CO)C(=O)Cc2cc(NC(=O)CCC(F)(F)F)ccc2O[C@H]1CN(C)Cc1ccc(Cl)c(Cl)c1	/	.	.	/	.	/
CCN(CC)c1ccc(CNc2nc3ccccc3n2CCN2CCCCC2)cc1	.	/	.	.	/	42.6
COc1ccc(CNc2nc3ccccc3n2CCN2CCCCC2)cc1	.	.	.	.	.	.
CC(C)NC(=O)Nc1ccc2c(c1)C(=O)N([C@@H](C)CO)C[C@@H](C)[C@H](CN(C)CC1CCCCC1)O2	/	.	.	/	.	/
Cc1ccc(S(=O)(=O)Nc2c(C)n(C)n(-c3ccccc3)c2=O)cc1	.	.	.	.	.	54.4!
Cc1nc2nc(C)c(CCC(=O)NC3CCCCC3)c(C)n2n1	.	/	.	.	/	.
Cc1[nH]nc(C(F)(F)F)c1CCC(=O)NC1CCCCCC1	.	.	.	58.5	.	.
Cc1ccc(C(=O)CSc2nnc(-c3ccccc3N)n2C)cc1	/	.	.	.	.	36.8
SMILES	CAL PDZ FP-1	UUG fidelity	ARNT TACC3 PPI	Vif imaging	PglD DTNB	CAL PDZ FP-2
C/C(=N\N1C(=O)CSC1=S)c1ccc(Br)cc1	.	/	.	.	/	43.8
Cc1ccc(C(=O)NN2C(=O)CSC2=S)cc1	.	/	.	.	/	.
CCC(C)NC(=O)CC(c1ccccc1)c1cc(C)ccc1O (stereo not drawn)	.	.	.	.	.	33.9
CCOc1cccc(C(=O)Nc2ccc(NC(=O)c3cc4ccccc4o3)c(OC)c2)c1	.	.	.	71.2	.	.
CCOc1cccc(C(=O)Nc2ccc3oc(Cc4ccc(Cl)cc4)nc3c2)c1	.	.	.	56.4	.	.
COc1cccc(N=Nc2c(N)[nH]n3c(=O)cc(-c4ccccc4)nc23)c1	.	.	.	.	.	63.4
Cc1ccc(N=Nc2c(N)[nH]n3c(=O)cc(-c4ccccc4)nc23)cc1	.	.	.	.	.	.
CS(=O)(=O)Nc1ccc2c(c1)[C@@H]1C[C@H](CC(=O)N3CCCCC3)O[C@@H](CO)[C@@H]1O2	/	.	.	/	.	/
NNC(=O)c1ccc(CSc2cccc3cccnc23)cc1	.	.	.	.	.	.
c1cnc2c(SCc3ccc(-c4nnco4)cc3)cccc2c1	.	.	59.5	.	/	/
Cc1ccc(N=C(c2cccs2)N2CCOCC2)cc1	.	.	.	63.4	.	.
Cc1ccccc1S(=O)(=O)N1C[C@@H](O)COC[C@H]2O[C@@H](CC(=O)O)CC[C@@H]21	/	/	.	/	.	/
CN(C)CCN(C(=O)c1ccc2ccccc2c1)c1nc2ccc(F)cc2s1	.	.	.	.	.	.
CCc1ccc2nc(N(CCN(C)C)C(=O)c3ccc4ccccc4c3)sc2c1	.	.	.	.	.	69.0
CC(=O)c1cc(CC=C(C)C)c(O)c(CC=C(C)C)c1O	.	.	.	63.6	.	/
Cc1cccc(NC(=O)CS(=O)(=O)c2c[nH]c3ccccc23)c1C	.	.	.	.	.	54.9
COc1cc(/C=N/N2C(=O)CSC2=S)cc(Br)c1O	.	.	.	.	.	53.3
COc1cccc(/C=N/N2C(=O)CSC2=S)c1O	.	/	67.0	.	/	.
COc1ccc2ccccc2c1/C=N/N1C(=O)CSC1=S	.	/	.	.	/	.
O=C1CSC(=S)N1N=Cc1c(O)ccc2ccccc12	.	/	68.2	.	/	.
COc1ccc(C(=O)C2CCN(C(=O)c3ccc(OC)cc3)CC2)cc1	.	.	.	.	.	74.1
COC(=O)c1ccccc1NC(=O)C1CCN(C(=O)c2cc(OC)cc(OC)c2)CC1	.	.	.	.	.	115.3
CC(C)NC(=O)N(C)C[C@H]1Oc2ccc(NC(=O)Nc3cccc4ccccc34)cc2C(=O)N([C@H](C)CO)C[C@@H]1C	/	.	.	/	.	/
Cc1ccc(C(=O)NC(N2CCCC2)C(Cl)(Cl)Cl)cc1 (stereo not drawn)	.	.	.	56.4	.	.
CCOC(=O)c1[nH]ncc1CN1CCN(Cc2ccccc2)C(CCO)C1 (stereo not drawn)	.	/	.	.	/	30.4
C[C@@H]1CN([C@@H](C)CO)C(=O)c2cccc(NC(=O)Nc3ccc(F)cc3)c2O[C@H]1CN(C)S(=O)(=O)c1cccs1	/	.	.	/	.	/

Assay outcomes (PubChem BioAssay)
